Values of other authors as cited in patent publication EP4035684A1, “AFFINITY ILLUDOFULVENE CONJUGATES” (AF Chemical LLC, priority 2019, dated 2022).

Test system: NCI 60 cell line panel
Conditions: human, nci 60 cell lines; cited from earlier work

In the case of `CC1=C2C(=C[C@@](C)(CO)[C@@H]2O)C(=O)[C@](C)(O)C12CC2` [Illudin S], the CC50 is given as 511 nM.
